# According to article PMC3939009, “Thrombin inhibitory activity of some polyphenolic compounds” (Medicinal Chemistry Research, 2013):
# pIC50, pKd: −log10 of the molar value. Like-named read-outs stand apart in the source and are kept apart here.
# Experiments:
# human thrombin [1] = biological target: T1, human thrombin (Homo sapiens, UniProt P00734); test: BIAcore (SPR) analysis of binding to immobilized thrombin; design: Thrombin, also known as an active plasma coagulation factor II; purchased Sigma-Aldrich Chemical Co. (St. Louis, MO, USA) T7009
# Description: The biosensor assays were performed using the BIAcore 1000 biosensor system. All biosensor analyses were performed with a phosphate-buffered saline (PBS), pH 7.4, as a running buffer. […] The immobilization of thrombin on a biosensor carboxylmethyl dextran surface was performed according to the BIA applications Handbook (BIAcore, [1994]). The process of protein immobilization was performed on a sensor chip CM5 surface by the positively charged functional groups of protein amino acids. The immobilization process consisted of four steps: preconcentration, activation, ligand immobilization and deactivation of the residual NHS esters. […] The temperature during the whole experiment was also constant and was set to 25.0 °C. […] Each of these solutions (10 μl) was injected into an empty sensor chip channel. […] The amount of injected activation mixture was modified, to regulate the amount of immobilized ligand. […] The conditions of the latter experiments were established by numerous pre-tests. The assessed parameters included: the buffer flow rate, the volume of analyte injection, the concentration of analytes, types and concentration of regenerators. […] For each injection of analyte solution, the volume used was 100 μl. After injection of analyte was completed, the dissociation step occurred and the level of the interaction ligand-analyte was measured. During dissociation, the particles non-covalently bound to the ligand were washed out from the working channel. […] To do these calculations, the formulas presented below were used: the association rate […]]; the dissociation rate -d[AB]/dt=kd·[AB]; the equilibrium constants: KA=[AB]/[A]·[B]=ka/kd KD=[A]·[B]/[AB]=kd/ka.
# human thrombin [2] = biological target: T1, human thrombin; test: Amidolytic activity of thrombin (hydrolysis of chromogenic substrate D-Phe-Pip-Arg-pNA); assay type: biochemical; design: Thrombin, also known as an active plasma coagulation factor II; purchased Sigma-Aldrich Chemical Co. (St. Louis, MO, USA) T7009; host or cells: purified from human plasma; details: at 375 μM substrate concentration; compounds 0.1–1,000 μM, preincubation 10 min 37 °C
# Description: All tested compounds were dissolved in 50 % DMSO to the initial concentration of 10 mM; other solutions of compounds were also prepared in 50 % DMSO (prepared in 50 mM TBS, pH 7.4). The final concentration of DMSO in thrombin samples was 5 %. To prepare thrombin control samples, the same volume of solvent (50 % DMSO prepared in 50 mM TBS, pH 7.4) was added as in the case of the compound volume and warmed for 10 min to 37 °C.
# To each reaction well, 40 μl of 3 mM chromogenic substrate was added. To initiate the chromogenic reaction, 280 μl of control thrombin (without tested compounds) or thrombin after preincubation with a polyphenolic compound to every reaction well in the same moment was added. The absorbance value was monitored every 12 s for 10 min. The maximal velocity of the reaction (V max, Δm OD/min) for each absorbance curve was determined. IC50 value (parameter) for every polyphenolic compound from inhibition curves was estimated.
smiles,measurement,setting,value
"Oc1cc(O)c2cc(O)c(-c3ccc(O)c(O)c3)[o+]c2c1 [Cyanidin, cyanidin]","K A, equilibrium association constant",human thrombin [1],1.28 × 10^8 M^–1
same,"K A, equilibrium association constant","human thrombin [1]; 5 sensorgrams, 50 to 1,000 μM",1.28e+08 M⁻¹
same,pKd,"human thrombin [1]; 5 sensorgrams, 50 to 1,000 μM, read-out: K D, equilibrium dissociation constant",8.11
same,pIC50,human thrombin [2],6.60
